Read-outs that look alike come from different tables or passages of the source.
What was measured:
5HT1A = 5HT1A (Homo sapiens, UniProt P08908); design: host or cells: HEK293, transient; conditions: cited from earlier work
5HT7 = 5HT7 (Homo sapiens, UniProt P34969); assay: Affinity (Ki) at 5HT7, HEK293 cells stably expressing 5HT7

Sequences of proteins named here, by UniProt entry; tags and fusion partners are left off.
UniProt P08908, whole entry: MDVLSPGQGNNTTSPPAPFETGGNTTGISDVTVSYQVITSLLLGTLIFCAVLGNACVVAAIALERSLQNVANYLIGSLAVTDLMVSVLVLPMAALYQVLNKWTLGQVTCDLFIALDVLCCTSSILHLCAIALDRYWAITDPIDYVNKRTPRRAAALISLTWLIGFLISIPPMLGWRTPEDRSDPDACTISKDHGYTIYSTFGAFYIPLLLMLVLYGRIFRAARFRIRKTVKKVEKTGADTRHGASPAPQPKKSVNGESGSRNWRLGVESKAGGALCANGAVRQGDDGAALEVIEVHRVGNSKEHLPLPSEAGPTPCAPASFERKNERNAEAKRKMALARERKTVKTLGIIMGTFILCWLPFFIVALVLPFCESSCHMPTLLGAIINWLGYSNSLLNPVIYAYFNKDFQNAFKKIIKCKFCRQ
UniProt P34969, whole entry: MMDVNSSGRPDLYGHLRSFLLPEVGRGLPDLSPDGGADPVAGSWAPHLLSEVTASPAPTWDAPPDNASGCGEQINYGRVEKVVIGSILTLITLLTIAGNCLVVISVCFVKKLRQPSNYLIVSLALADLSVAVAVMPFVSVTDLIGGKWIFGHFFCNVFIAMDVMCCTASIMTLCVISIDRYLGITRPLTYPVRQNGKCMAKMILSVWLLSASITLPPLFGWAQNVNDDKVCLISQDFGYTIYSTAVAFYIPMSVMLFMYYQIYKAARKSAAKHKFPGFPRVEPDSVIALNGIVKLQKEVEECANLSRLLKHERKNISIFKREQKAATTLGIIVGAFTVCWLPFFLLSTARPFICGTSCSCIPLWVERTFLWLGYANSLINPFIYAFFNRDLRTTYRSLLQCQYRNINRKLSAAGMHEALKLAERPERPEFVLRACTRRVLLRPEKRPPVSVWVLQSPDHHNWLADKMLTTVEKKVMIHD

For `CCCN(CCC)[C@@H]1CCc2cccc(O)c2C1` [Compound 8-OH-DPAT, (R)-8-hydroxy-2-(n-di-propylamino)tetralin], the “Function at 5HT1A (literature)” value (5HT1A) is given as “high-affinity full-efficacy 5HT1A agonist”.
In the case of `O=C1CC2(CCCC2)CC(=O)N1CCCCN1CCN(c2ncccn2)CC1` [Buspirone, reference compound], the Ki (5HT7) is reported as over 1000 nM and the Ki (5HT7; read-out: Affinity Ki ± SEM at 5HT7) is reported as over 1000 nM.

Source: US20230348358A1, “Serotonin Receptor Modulators” (Northeastern University, priority 2020, published 2023)
